Consider 3 compounds from ChEMBL document CHEMBL1212709, “Design of isoform-selective phospholipase D inhibitors that modulate cancer cell invasiveness” (Nat Chem Biol, 2009).

The chains behind the UniProt entries cited, without tags or fusion partners. Where a name states a change or a piece, a line headed by the entry shows the natural chain unless it says otherwise.
UniProt O14939: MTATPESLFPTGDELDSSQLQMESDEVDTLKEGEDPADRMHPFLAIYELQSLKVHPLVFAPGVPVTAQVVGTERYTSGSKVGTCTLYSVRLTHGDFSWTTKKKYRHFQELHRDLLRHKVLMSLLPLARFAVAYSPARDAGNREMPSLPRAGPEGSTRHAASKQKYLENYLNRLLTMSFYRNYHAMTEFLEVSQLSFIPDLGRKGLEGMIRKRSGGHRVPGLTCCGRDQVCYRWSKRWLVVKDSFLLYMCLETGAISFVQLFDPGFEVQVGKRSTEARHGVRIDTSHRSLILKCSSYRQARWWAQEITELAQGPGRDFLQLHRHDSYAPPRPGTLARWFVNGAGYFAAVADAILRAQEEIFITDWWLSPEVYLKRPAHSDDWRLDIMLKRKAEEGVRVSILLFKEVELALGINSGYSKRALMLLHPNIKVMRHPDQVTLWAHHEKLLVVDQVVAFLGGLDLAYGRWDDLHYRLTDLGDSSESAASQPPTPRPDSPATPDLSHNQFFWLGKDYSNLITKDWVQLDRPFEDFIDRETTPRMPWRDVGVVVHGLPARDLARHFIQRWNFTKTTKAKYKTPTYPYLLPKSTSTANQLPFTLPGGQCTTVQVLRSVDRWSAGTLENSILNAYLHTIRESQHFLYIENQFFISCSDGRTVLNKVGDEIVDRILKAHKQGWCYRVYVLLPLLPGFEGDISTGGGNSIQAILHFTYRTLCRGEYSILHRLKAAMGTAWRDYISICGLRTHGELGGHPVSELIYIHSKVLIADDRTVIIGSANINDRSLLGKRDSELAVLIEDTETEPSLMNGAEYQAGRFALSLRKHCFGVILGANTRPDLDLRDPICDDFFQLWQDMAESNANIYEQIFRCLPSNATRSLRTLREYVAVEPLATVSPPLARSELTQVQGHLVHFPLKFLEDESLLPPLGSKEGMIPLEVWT

The term IC50 denotes the concentration that inhibits the measured activity by half.

In test [1] the target is T1, Phospholipase D2 (Homo sapiens, UniProt O14939). The test can be described thus: Inhibition of GFP-tagged human PLD2 expressed in human HEK293 cells assessed as decrease in phosphatidylbutanol-[d9] production after 30 mins by mass spectrometric analysis. It is filed as cell-based.
The target in test [2] is T1, Phospholipase D2. The test can be described thus: Inhibition of human PLD2 assessed as release of methyl-[3H]choline from choline-methyl-[3H]dipalmitoylphosphatidylcholine after 30 mins by exogenous substrate assay.
The target of test [3] is T2, Phospholipase D1 (Homo sapiens, UniProt Q13393).
T2 sequence (Q13393 whole entry): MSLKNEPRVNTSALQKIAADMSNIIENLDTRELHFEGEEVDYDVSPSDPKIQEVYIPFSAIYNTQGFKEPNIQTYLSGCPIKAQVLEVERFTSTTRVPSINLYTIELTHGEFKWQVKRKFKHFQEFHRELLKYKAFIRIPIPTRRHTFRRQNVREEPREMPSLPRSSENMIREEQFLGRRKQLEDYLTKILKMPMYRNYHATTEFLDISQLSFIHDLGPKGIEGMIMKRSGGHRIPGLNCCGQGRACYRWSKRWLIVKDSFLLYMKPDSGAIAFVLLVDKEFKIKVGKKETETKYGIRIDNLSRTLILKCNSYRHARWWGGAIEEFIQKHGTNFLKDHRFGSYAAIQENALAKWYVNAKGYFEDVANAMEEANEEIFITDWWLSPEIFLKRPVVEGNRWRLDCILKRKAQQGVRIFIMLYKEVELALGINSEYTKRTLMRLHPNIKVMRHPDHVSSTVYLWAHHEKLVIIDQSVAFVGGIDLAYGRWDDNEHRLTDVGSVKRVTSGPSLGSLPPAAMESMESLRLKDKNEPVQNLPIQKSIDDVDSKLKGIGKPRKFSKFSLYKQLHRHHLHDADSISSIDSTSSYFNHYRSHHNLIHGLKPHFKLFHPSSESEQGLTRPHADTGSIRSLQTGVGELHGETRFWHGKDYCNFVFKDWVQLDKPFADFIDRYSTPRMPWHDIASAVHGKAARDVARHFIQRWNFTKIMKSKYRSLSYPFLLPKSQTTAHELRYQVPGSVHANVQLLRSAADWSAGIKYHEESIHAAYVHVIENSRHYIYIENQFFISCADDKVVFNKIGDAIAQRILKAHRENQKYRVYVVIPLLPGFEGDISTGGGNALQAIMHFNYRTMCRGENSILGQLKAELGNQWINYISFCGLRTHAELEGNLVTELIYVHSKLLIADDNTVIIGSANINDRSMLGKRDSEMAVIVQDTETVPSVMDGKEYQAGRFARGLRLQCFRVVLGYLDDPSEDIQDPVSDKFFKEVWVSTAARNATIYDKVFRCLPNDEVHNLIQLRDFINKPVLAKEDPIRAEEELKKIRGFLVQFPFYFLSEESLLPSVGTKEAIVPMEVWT

The target of test [4] is T2, Phospholipase D1. Kind of test: Inhibition of human PLD1 assessed as release of methyl-[3H]choline from choline-methyl-[3H]dipalmitoylphosphatidylcholine after 30 mins by exogenous substrate assay.
The target of test [5] is T3, Phospholipase D1 (Rattus norvegicus, UniProt P70496).
T3 sequence (P70496 whole entry): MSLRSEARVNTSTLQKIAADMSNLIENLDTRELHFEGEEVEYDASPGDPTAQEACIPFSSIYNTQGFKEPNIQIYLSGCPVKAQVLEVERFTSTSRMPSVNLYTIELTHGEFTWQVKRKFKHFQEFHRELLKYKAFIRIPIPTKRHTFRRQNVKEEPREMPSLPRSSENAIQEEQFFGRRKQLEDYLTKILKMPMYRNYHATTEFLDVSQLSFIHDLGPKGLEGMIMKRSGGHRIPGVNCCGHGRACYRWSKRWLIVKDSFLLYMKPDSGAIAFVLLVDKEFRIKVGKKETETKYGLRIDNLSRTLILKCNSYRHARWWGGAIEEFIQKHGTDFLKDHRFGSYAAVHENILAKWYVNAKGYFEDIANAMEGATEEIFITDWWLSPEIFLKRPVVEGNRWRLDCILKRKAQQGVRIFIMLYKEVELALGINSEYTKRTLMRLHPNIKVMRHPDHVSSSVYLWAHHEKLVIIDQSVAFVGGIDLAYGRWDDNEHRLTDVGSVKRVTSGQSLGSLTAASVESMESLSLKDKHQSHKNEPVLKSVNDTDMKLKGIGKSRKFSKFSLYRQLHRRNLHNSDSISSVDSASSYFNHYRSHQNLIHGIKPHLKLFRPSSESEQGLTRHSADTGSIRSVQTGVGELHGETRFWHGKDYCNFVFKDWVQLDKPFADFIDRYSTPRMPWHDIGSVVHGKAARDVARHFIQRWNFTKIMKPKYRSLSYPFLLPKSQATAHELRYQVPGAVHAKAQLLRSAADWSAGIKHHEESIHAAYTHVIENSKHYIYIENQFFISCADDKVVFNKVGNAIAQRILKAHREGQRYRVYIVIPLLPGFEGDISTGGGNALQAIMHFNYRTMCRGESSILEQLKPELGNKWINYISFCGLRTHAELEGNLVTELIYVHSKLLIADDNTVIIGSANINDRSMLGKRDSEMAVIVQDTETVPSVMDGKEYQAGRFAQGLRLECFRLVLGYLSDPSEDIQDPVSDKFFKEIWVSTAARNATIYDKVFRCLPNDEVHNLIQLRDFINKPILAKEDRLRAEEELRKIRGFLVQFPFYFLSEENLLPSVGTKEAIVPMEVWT
The test can be described thus: Inhibition of N-terminally truncated rat PLD1 assessed as release of methyl-[3H]choline from choline-methyl-[3H]dipalmitoylphosphatidylcholine after 30 mins by exogenous substrate assay.

Regarding `C=Cc1ccc(C(=O)NCCN2CCC(n3c(=O)[nH]c4ccccc43)CC2)cc1`, in test [1], the IC50 was 1400 nM.
On to `O=C(NCCN1CCC2(CC1)C(=O)NCN2c1ccccc1)c1ccc2ccccc2c1`, for which the IC50 was 110 nM in test [1], 140 nM in test [2], 1000 nM in test [3] and 5100 nM in test [4].
Consider `O=C(NCCN1CCC(n2c(=O)[nH]c3ccccc32)CC1)[C@@H]1C[C@H]1c1ccccc1`, for which, in test [5], the IC50 came out at 7600 nM.
